Assay results from patent US20210128457A1 (priority 2019, published 2021).

Tested on: cochlear hair cells
Test: Gentamicin distribution in cochlear hair cells, RWS versus transcanal USM

Gentamicin was tested, and the “gentamicin uptake in hair cells (green fluorescence), basal turn” value (RWS, stood 3 minutes without ultrasound) was “only a small amount of green dot-like fluorescence could be found” and the “gentamicin uptake in hair cells (green fluorescence), basal, second and third turn” value (transcanal USM) was “green fluorescence was found in the basal turn, the second turn, and third turn”.
